Reference: PubChem BioAssay AID1875 (Broad Institute, 2009)
Some of the results follow. The source made the active and inactive calls.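 Rule for the calls: active = lowest replicate activity score at least 50, where 100 means six control SD above control mean; inconclusive = lowest score under 50 but half or more replicates reach 50; inactive = the rest.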

Test: polyadenylation inhibitors in yeast reporter cells, primary screen, luminescence, S. cerevisiae (AID 1875);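 note: yeast exposed to compound for 9 h at 30 °C; higher score means more reporter readthrough which indicates perturbed polyadenylation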
Details: S. cerevisiae SKY197-pL101 polyadenylation reporter, beta-gal luminescence; at 12 µM; hits give high values; efflux-impaired pdr1/pdr3 knockout yeast; score 100 = 6 SD above DMSO
With `O=C(OC1CN2CCC1CC2)C12CC3CC(CC(C3)C1)C2` (centres undefined) the activity score was inactive: 10.9%. With `Cc1cc(=O)[nH]c(N[N+](=O)[O-])n1` the activity score was inactive: 3.92%. For `CCN(CC)CCCOC(=O)C(O)(c1ccccc1)c1ccccc1`, the activity score was inactive: -0.909%. For `Cc1c2c(nc3ccccc13)SC(C(Cl)Cl)C2` (centres undefined), the activity score was inactive: -13.7%. In the case of `COc1ccc2nc(NP(=O)(c3ccccc3)c3ccccc3)sc2c1`, the activity score is reported as inactive: 4.6%. For `COc1cc(I)ccc1[As](=O)(O)O`, the activity score was inactive: -6.27%. With `COc1ccc(N/C(=N/P(=O)(N2CCOCC2)N2CCOCC2)N2CCOCC2)cc1` the activity score was inactive: -6.39%. With `O=[As](O)(c1ccc(O)cc1)c1ccccc1O` the activity score was inactive: 17.7%. In the case of `C[As](=O)(O)c1cccc(C(=O)O)c1`, the activity score is reported as inactive: -1.05%. With `O=[N+]([O-])c1cc([N+](=O)[O-])c(Nc2cccnc2)c([N+](=O)[O-])c1` the activity score was inactive: -0.376%. With `O=[N+]([O-])c1ccc2c(c1)C=Nc1ccccc1O2` the activity score was inactive: 8.32%. For `Cc1ccc2nc3c(c(C)c2c1)CC(C(Cl)Cl)S3` (centres undefined), the activity score was inactive: -47.2%. For `Cc1ccc(OP(=O)(Nc2ccc([N+](=O)[O-])cn2)Oc2ccc(C)cc2)cc1`, the activity score was inactive: -2.22%. For `CC(C)(C)c1ccc(OP(C)(=O)Nc2ccc(SC(F)(F)F)cc2)cc1` (centres undefined), the activity score was inactive: 14.5%. In the case of `Cc1cccc(C)c1OP(C)(N)=O` (centres undefined), the activity score is reported as inactive: -9.63%. In the case of `COc1ccccc1OP(C)(=O)Nc1ccc(C)cc1` (centres undefined), the activity score is reported as inactive: 2.92%. With `Cc1ccc(NP(C)(=O)Oc2ccccc2)c(C)c1` (centres undefined) the activity score was inactive: -5.97%. With `CC(C)c1ccc(OP(=O)(Nc2ccccn2)Oc2ccccc2F)cc1` (centres undefined) the activity score was inactive: 38.3%. For `CCOC(=O)c1ccc(NP(C)(=O)Oc2ccccc2)cc1` (centres undefined), the activity score was inactive: -7.22%. For `ClCCSc1nnc(-c2cccnc2)o1`, the activity score was inactive: 26%. With `Cc1cc(C)cc(OP(C)(N)=O)c1` (centres undefined) the activity score was inactive: 21.4%. For `CC(C)NC(=O)NP(=O)(Oc1ccccc1)Oc1ccccc1`, the activity score was inactive: 16.8%. For `COc1ccccc1OP(C)(=O)Nc1cc(Cl)ccc1C` (centres undefined), the activity score was inactive: 7.85%. For `CCN(CC)C(=S)SC(NC=O)C(Cl)(Cl)Cl` (centres undefined), the activity score was inactive: 16.5%. For `COc1ccc(OP(C)(=O)Nc2cccc(F)c2)cc1` (centres undefined), the activity score was inactive: 21.8%. In the case of `O=[N+]([O-])c1cc([N+](=O)[O-])c(-c2ccn[nH]2)s1`, the activity score is reported as inactive: -23.8%. With `CCOC(=O)Nc1ccc([As](=O)(O)O)c(O)c1` the activity score was inactive: -17.7%. In the case of `CCCCOc1ccc(C(=O)NCC2(N3CCCCC3)CCCCC2)cc1OC`, the activity score is reported as inactive: -16.4%. In the case of `Cc1cc(SC(NC(=O)c2ccccc2)C(Cl)(Cl)Cl)nc(C(C)C)n1` (centres undefined), the activity score is reported as inactive: -23.7%. For `CCOC(=O)Nc1cccc([As](=O)(O)O)c1`, the activity score was inactive: 13.3%. For `CP(=S)(Nn1cnnc1)Oc1ccccc1` (centres undefined), the activity score was inactive: 12.6%. With `CP(=O)(Nc1ccccc1Br)Oc1ccccc1` (centres undefined) the activity score was inactive: -2.34%. In the case of `O=[N+]([O-])c1ccc(Nc2ccc(Oc3ccc([N+](=O)[O-])cc3[N+](=O)[O-])cc2)c([N+](=O)[O-])c1`, the activity score is reported as inactive: 16.2%. In the case of `Cc1cc(SC(NC=O)C(Cl)(Cl)Cl)ncn1` (centres undefined), the activity score is reported as inactive: -20%. With `O=P(Nc1ccccn1)(c1cccc2ccccc12)c1cccc2ccccc12` the activity score was inactive: -3.31%. With `COc1ccccc1OP(C)(=O)Nc1ccccc1` (centres undefined) the activity score was inactive: -7.19%. With `COP1(=S)c2c(C)nn(CCC#N)c2N=C(c2ccc(F)cc2)N1C` (centres undefined) the activity score was inactive: -11.8%. For `CP(=O)(Nc1ccc(SC(F)(F)F)cc1)Oc1ccc(Cl)cc1` (centres undefined), the activity score was inactive: -22.5%. In the case of `Cc1cccc(C)c1OP(C)(=O)Nc1ccc(SC(F)(F)F)cc1` (centres undefined), the activity score is reported as inactive: 14.4%. In the case of `CP(=O)(Oc1ccccc1)OC(c1ccccc1)C(F)(F)F` (centres undefined), the activity score is reported as inactive: 10.2%. With `CP(=O)(NC(=O)Nc1ccccc1)Oc1ccccc1` (centres undefined) the activity score was inactive: -13.5%. With `O=C(COc1ccccc1)OC1CN2CCC1CC2` (centres undefined) the activity score was inactive: 21.2%. For `CCc1ccc(OP(C)(=O)N2CCN(c3ccc([N+](=O)[O-])cc3)CC2)cc1` (centres undefined), the activity score was inactive: 14.8%. With `Cc1cc(C)cc(OP(C)(=O)Nc2ccc(SC(F)(F)F)cc2)c1` (centres undefined) the activity score was inactive: 25%. With `O=C(Nc1ccncc1[N+](=O)[O-])c1ccc([N+](=O)[O-])cc1[N+](=O)[O-]` the activity score was inactive: -17.9%. With `O=[N+]([O-])c1cc([N+](=O)[O-])c(O)c([N+](=O)[O-])c1.c1ccc(Oc2ccncc2)cc1` the activity score was inactive: -9.21%. For `CCOC(=O)c1ccc(NP(C)(=O)Oc2ccc(OC)cc2)cc1` (centres undefined), the activity score was inactive: 1.42%. In the case of `CCOC(=O)c1ccc(NC(=O)C(C)(CCl)SC)cc1` (centres undefined), the activity score is reported as inactive: -8.59%. With `CCOP(C)(=S)SCC(=O)NC(C)C(=O)O` (centres undefined) the activity score was inactive: 11.2%. In the case of `O=C(OC1CN2CCC1CC2)c1cccc([N+](=O)[O-])c1` (centres undefined), the activity score is reported as inactive: -16.4%. For `CP(=O)(Nc1ccccn1)Oc1ccc(Cl)cc1` (centres undefined), the activity score was inactive: 0.295%. With `CCC(C)N(CC(C)C)C(=S)SC(NC(C)=O)C(Cl)(Cl)Cl` (centres undefined) the activity score was inactive: -8.04%. With `CCN(CC)CC(O)COC(=O)C(O)(c1ccccc1)C1CCCCC1` (centres undefined) the activity score was inactive: 0.987%. In the case of `COc1ccc(C2=NCC(CBr)S2)cc1` (centres undefined), the activity score is reported as inactive: -6.4%. In the case of `COc1ccc(OP(C)(=O)Nc2ccc(Br)cc2)cc1` (centres undefined), the activity score is reported as inactive: -7.09%. In the case of `CC(=O)N1C2C3N(C(C)=O)C1C1N(C(C)=O)C(C(N1C(C)=O)N3C(C)=O)N2C(C)=O`, the activity score is reported as inactive: -2.38%. For `O=[N+]([O-])c1cccc2n[nH]nc12`, the activity score was inactive: 5.46%. With `COc1ccccc1OP(C)(=O)Nc1c(C)n(C)n(-c2ccccc2)c1=O` (centres undefined) the activity score was inactive: 6.92%. With `O=C(OCCCN1CCCC1)C(O)(c1ccccc1)C1CCCCC1` (centres undefined) the activity score was inactive: 13.4%. For `Cc1ccc(NP(=O)(Oc2ccccc2)Oc2ccccc2)nc1`, the activity score was inactive: 13.2%. For `CP(=O)(Oc1ccccc1)N1CCOC1=O` (centres undefined), the activity score was inactive: 2.09%. In the case of `CCc1ccc(OP(C)(=O)Nc2cccnc2)cc1` (centres undefined), the activity score is reported as inactive: 21%. In the case of `O=[N+]([O-])c1cc([N+](=O)[O-])c(CCNc2ccccc2)c([N+](=O)[O-])c1`, the activity score is reported as inactive: -51%. In the case of `CCc1nc2c(n1)c1c(non1O)c1c2no[n+]1[O-]`, the activity score is reported as inactive: -10.3%. In the case of `COc1ccccc1OP(C)(=O)Nc1ccccc1Br` (centres undefined), the activity score is reported as inactive: -4.98%. In the case of `Nc1ccc([As](=O)(O)c2ccc(N)cc2)cc1`, the activity score is reported as inactive: 19.4%. In the case of `CC(C)(C)c1ccc(OP(C)(=O)O)cc1`, the activity score is reported as inactive: 20.5%. For `C[N+]1=C2C=CC=CC=C2SC12C([N+](=O)[O-])=CC([N+](=O)[O-])=C[C-]2[N+](=O)[O-]` (centres undefined), the activity score was inactive: -21.9%. For `CCN(/C(=N/P(=O)(N1CCOCC1)N1CCOCC1)N1CCOCC1)c1ccc(OC)cc1`, the activity score was inactive: -3.27%. In the case of `CP(=O)(Nc1ccc(Cl)cc1)Oc1ccc(F)cc1` (centres undefined), the activity score is reported as inactive: -6.69%. With `CC(C)=N/N=C(\N)N[N+](=O)[O-]` the activity score was inactive: 5.54%. With `CN(C)C(=O)c1c([N+](=O)[O-])cc([N+](=O)[O-])cc1[N+](=O)[O-]` the activity score was inactive: 12.3%. With `CN(C)C(=O)OCCc1n(C)cc[n+]1C` the activity score was inactive: -3.39%. For `CC1CCN(C(=O)Oc2c(Cl)cc(Cl)c3cccnc23)CC1`, the activity score was inactive: -5.69%. With `Nc1ccc2c(ccc3cccnc32)n1.O=[N+]([O-])c1cc([N+](=O)[O-])c(O)c([N+](=O)[O-])c1` the activity score was inactive: -1.33%. For `CCOC(=O)c1ccc(NP(C)(=O)Oc2ccc(Cl)cc2)cc1` (centres undefined), the activity score was inactive: -2.81%. For `O=C(Nc1cc([As](=O)(O)O)ccc1O)c1ccccc1`, the activity score was inactive: -2.16%. With `CP(=O)(OC12CC3CC(CC(C3)C1)C2)OC12CC3CC(CC(C3)C1)C2` the activity score was inactive: -3.11%. With `CC(C)(C)C(=O)NC(Sc1ccncn1)C(Cl)(Cl)Cl` (centres undefined) the activity score was inactive: -7.35%. In the case of `O=[N+]([O-])c1ncn(CCn2ncnc2[N+](=O)[O-])n1`, the activity score is reported as inactive: -25.9%. For `O=[N+]([O-])c1cccc(NC2=NCC(CBr)S2)c1` (centres undefined), the activity score was inactive: 18.7%. With `O=C(O)CNc1ccc([As](=O)(O)O)cc1` the activity score was inactive: 14.1%. With `CC(=O)Nc1ccc([As](=O)(O)O)cc1` the activity score was inactive: -6.7%. With `O=C(O)c1ccccc1[As](=O)(O)O` the activity score was inactive: -0.786%. In the case of `O=P(Nc1nc2ccc(Cl)cc2s1)(c1ccccc1)c1ccccc1`, the activity score is reported as inactive: -11.6%. With `Cc1cc(C)cc(OP(C)(=O)Nc2cccc(C(F)(F)F)c2)c1` (centres undefined) the activity score was inactive: 7.16%. For `Cc1cc(SC(NC(=O)c2ccc(F)cc2)C(Cl)(Cl)Cl)ncn1` (centres undefined), the activity score was inactive: -6.99%. In the case of `CCOP(=O)(Nc1ccccc1)OCC`, the activity score is reported as inactive: -6.83%. With `COc1ccccc1OP(C)(=O)Nc1ccc(C)c(C)c1` (centres undefined) the activity score was inactive: -6.44%. In the case of `CN(C(=O)Cc1ccc(Cl)c(Cl)c1)[C@H]1CCCC[C@@H]1N1CCCC1`, the activity score is reported as inactive: -11.2%. For `Cc1ccc(NP(=O)(Oc2ccccc2F)Oc2ccccc2F)nc1`, the activity score was inactive: -0.459%. With `COc1ccc(OP(C)(=O)Nc2ccccc2Br)cc1` (centres undefined) the activity score was inactive: 2.02%. With `Cc1nc2ccc3ccccc3c2o1.O=[N+]([O-])c1cc([N+](=O)[O-])c(O)c([N+](=O)[O-])c1` the activity score was inactive: -9.87%. With `O=[N+]([O-])c1cc([N+](=O)[O-])c(CCN2CCOCC2)c([N+](=O)[O-])c1` the activity score was inactive: -12%. With `CCN(N=Nc1nonc1N)c1nonc1N` the activity score was inactive: 5.43%. For `Nc1cccc2ccc([As](=O)(O)O)cc12`, the activity score was inactive: 0.717%. For `CP(=O)(Nc1ccc(Cl)cc1Cl)Oc1ccccc1` (centres undefined), the activity score was inactive: 0.319%. With `CP(=O)(OCCOc1ccccc1)OCCOc1ccccc1` the activity score was inactive: -2.33%. In the case of `NC(=O)c1cc([N+](=O)[O-])cc([N+](=O)[O-])c1N`, the activity score is reported as inactive: 4.3%.
